US8076288B2 (priority 2004, dated 2011)
Like-named read-outs stand apart in the source and are kept apart here.

By UniProt entry, the sequences of proteins in these tests, tags left out. Residues count along the entry.
UniProt O60894, 27-148 partner: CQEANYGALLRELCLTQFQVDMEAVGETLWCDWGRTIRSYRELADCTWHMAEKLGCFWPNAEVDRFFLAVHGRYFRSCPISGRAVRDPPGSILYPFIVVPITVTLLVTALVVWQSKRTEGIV
UniProt Q16602, 23-461: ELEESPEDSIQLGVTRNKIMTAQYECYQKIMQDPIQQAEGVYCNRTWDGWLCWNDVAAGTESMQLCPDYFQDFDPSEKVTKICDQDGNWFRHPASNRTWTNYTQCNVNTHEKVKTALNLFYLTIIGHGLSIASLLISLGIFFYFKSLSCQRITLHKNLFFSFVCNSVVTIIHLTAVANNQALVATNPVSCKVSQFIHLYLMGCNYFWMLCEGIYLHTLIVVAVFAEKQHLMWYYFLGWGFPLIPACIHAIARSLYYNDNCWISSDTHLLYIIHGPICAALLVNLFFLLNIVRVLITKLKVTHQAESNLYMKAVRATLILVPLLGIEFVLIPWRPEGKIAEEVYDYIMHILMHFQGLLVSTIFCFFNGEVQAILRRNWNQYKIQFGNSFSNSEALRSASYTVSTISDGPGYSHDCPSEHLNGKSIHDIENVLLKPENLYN

Legend:
amylin receptors = target: T1, amylin receptors (Rattus norvegicus, UniProt P32214); format: binding
T1 construct: nuclueus accumbens membranes prepared from rat brain; from tissue; host or cells: rat basal forebrain / nucleus accumbens membranes (male Sprague-Dawley rats)
T1 sequence (P32214 25-516): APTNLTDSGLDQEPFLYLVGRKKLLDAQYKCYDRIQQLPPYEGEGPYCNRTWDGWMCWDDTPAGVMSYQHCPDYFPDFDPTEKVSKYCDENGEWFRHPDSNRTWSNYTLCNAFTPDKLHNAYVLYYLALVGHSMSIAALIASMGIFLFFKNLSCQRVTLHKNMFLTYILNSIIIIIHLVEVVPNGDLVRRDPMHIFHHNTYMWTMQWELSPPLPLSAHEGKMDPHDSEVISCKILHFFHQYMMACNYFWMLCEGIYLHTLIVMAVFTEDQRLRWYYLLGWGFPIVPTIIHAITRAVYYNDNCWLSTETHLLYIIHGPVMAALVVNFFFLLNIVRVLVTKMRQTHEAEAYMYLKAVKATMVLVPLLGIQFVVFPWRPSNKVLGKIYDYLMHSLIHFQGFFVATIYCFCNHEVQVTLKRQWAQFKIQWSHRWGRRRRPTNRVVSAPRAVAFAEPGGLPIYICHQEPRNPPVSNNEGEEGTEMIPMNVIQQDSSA
T1 sequence (Q9JJ74 27-148 partner): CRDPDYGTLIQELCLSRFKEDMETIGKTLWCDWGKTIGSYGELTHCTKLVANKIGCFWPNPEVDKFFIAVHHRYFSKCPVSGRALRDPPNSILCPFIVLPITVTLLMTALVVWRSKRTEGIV

CGRP receptors = target: T2, CGRP receptors (Homo sapiens, UniProt O60894+Q16602); format: binding
T2 construct: SK-N-MC and L6 cells expressing endogenous CGRP receptors; endogenous in cells; host or cells: SK-N-MC cells (membranes)

calcitonin receptor = target: T3, calcitonin receptor (Rattus norvegicus, UniProt P32214); details: b373; read-out: IC50 in a CT receptor binding assay
T3 construct: host or cells: general text: 'CHO cells or T47D cells'
T3 sequence (P32214 25-479 isoform P32214-2 limits assumed): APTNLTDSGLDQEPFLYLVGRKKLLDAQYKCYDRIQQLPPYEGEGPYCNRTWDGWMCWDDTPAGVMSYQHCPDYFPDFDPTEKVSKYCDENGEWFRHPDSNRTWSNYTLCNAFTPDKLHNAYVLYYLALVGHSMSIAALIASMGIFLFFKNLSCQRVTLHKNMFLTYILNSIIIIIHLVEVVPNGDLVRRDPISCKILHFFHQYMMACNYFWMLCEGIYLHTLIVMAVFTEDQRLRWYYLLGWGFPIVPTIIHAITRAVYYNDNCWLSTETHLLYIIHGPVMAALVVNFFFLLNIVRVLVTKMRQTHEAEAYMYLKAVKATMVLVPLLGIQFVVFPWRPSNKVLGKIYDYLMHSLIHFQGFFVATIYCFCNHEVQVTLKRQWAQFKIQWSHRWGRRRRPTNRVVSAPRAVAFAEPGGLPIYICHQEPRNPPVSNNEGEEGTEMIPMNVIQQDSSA

[1] = active GLP-1; cited from earlier work
GLP-1 receptor = target: T4, GLP-1 receptor (Rattus norvegicus, UniProt P32301); details: Table 4-1; read-out: Receptor Binding (IC50) nM, GLP1R
T4 construct: Homogenized RINm5F cell membranes are incubated; endogenous in cells; host or cells: RINm5F cells (membranes); 'RIN' for the cyclase read-out
T4 sequence (P32301 22-463): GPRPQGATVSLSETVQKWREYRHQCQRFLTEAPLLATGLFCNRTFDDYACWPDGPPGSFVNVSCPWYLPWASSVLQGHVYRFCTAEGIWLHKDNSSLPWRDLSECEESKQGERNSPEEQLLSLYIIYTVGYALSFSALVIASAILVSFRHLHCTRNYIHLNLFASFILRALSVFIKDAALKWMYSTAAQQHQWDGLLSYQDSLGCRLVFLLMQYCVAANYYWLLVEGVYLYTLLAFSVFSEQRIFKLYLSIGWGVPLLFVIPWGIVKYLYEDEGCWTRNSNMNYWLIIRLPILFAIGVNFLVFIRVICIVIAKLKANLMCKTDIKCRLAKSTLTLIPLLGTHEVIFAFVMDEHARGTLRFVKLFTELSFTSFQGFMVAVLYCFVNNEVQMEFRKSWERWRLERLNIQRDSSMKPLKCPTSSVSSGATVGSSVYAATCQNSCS

CT receptor = target: T5, CT receptor (Rattus norvegicus, UniProt P32214); test: CT cyclase (C1A) assay; format: biochemical
T5 construct: host or cells: general text: 'CHO cells or T47D cells'
T5 sequence (P32214 25-479 isoform P32214-2 limits assumed): T3 sequence (P32214 25-479 isoform P32214-2 limits assumed)

DF(P-CH2SO3)MGWMDFGKR KCNTATCATQRLANELVRLQTYPRTNVGSNTY [SEQ ID NO: 398]
IC50 (amylin receptors; b373, read-out: IC50 in an amylin receptor binding assay): 0.083 nM | IC50 (CGRP receptors; b373, read-out: IC50 in a CGRP receptor binding assay): 4.4 nM | IC50 (calcitonin receptor): 0.044 nM

GLP-1
plasma half-life [1]: < 5 min

HGEGAFTSDLSKQLEEEAVRLFIEFLKN-NH2 [Compound 12, reference compound]
IC50 (GLP-1 receptor): 1.9 nM

[Ser117, dLeu119]leptin(116-122)-Amylin(1-7)-[^11,18Arg]sCT(8-27) -Amylin(33-37) [Compound 16]
IC50 (amylin receptors; RBA = receptor binding assay, read-out: IC50, amylin RBA): 0.04 nM | IC50 (CGRP receptors; read-out: IC50, CGRP RBA): 81 nM | IC50 (CT receptor): 2.2 nM

^29GlyGlyGly-Exendin(1-28),hAmylin(1-7)-^11,18Arg-sCt(8-27)-hAmylin(33-37) [Compound 15]
IC50 (amylin receptors; read-out: Receptor Binding Assay, Amylin): 0.2 nM
